Data taken from patent US6372790B1, “Pharmaceutical composition comprising a combination of metformin and fibrate, and its use for the preparation of medicines intended to reduce hyperglycaemia” (Merck Patent Gesellschaft mit beschrankter Haftung, priority 1998, dated 2002).

System: NIDD STZ rats
Experiment: Streptozotocin-induced non-insulin-dependent diabetes (NIDD) rat model: glycaemia, cholesterol, triglycerides
Assay type: in vivo
Details: STZ (45 mg/kg) diabetic male Wistar rats, oral treatment at the doses in Table 1, measured 23 days after STZ, mean ± SEM, 10 rats per group
Text: Non-insulin-dependent diabetes (NIDD) is induced by injecting streptozotocin into male wistar rats. The action of clofibrate alone, of bezafibrate alone, of fenofibrate alone and of metformin alone was first evaluated in terms of glycaemia, cholesterol level and level of triglycerides. Next, the metformin+clofibrate, metformin+bezafibrate and metformin+fenofibrate combinations were studied. The procedure followed is as follows. […] Two weeks after this treatment, blood is taken and the glycaemia is measured. […] The animals then receive, orally, either metformin alone, or a fibrate alone, or a combination of the two in the doses indicated in Table 1 below. 23 days after the injection of streptozotocin, the animals are sacrificed and the following parameters are determined: glycaemia, cholesterol and triglycerides. […] The Student t test is carried out to evaluate the significance of the results obtained.

Question: Which results are given for `CC(C)OC(=O)C(C)(C)Oc1ccc(C(=O)c2ccc(Cl)cc2)cc1` [Fenofibrate, fenofibrate]?
Answer: Glycaemia: 1.92 ± 0.20 g/L; Glycaemia (listed as fenofibrate): 1.92 g/L
